Results published in patent US20120196933A1, “MEXILETINE PRODRUGS” (priority 2010, published 2012).

Biological target: hNav1.1 channel (Homo sapiens, UniProt P35498)
Assay: Block of cloned hNav1.1 channel expressed in CHO cells (IonWorks Quattro)
Conditions: hNav1.1, CHO cells
[1] = IC50 10 Hz block, frequency-dependent block at 10 Hz
[2] = IC50 Inactivated state, inactivation state block
[3] = read-out: IC50 10 Hz block, frequency-dependent block at 10 Hz
[4] = read-out: IC50 Inactivated state, inactivation state block
[5] = read-out: IC50 Tonic block, tonic block

Row | IC50 [1] | IC50 [2] | IC50 (IC50 Tonic block, tonic block) | SMILES | IC50 [3] | IC50 [4] | IC50 [5]
1 | > 1000 µM | 499 µM | > 1000 µM | Cc1cccc(C)c1OCC(C)NC(=O)CNC(=N)N (stereo not drawn) [Mexiletine-glycocyamine amide, Mexiletine-Glycocyamine Amide Hydrochloride] |  |  | 
2 | > 1000 µM | > 1000 µM | > 1000 µM | CNC(=N)NCCC[C@H](N)C(=O)NC(C)COc1c(C)cccc1C (stereo partly drawn) [Mexiletine (S)-N-methylarginine amide, Mexiletine-(S)—N-Methylarginine Amide Dihydrochloride] |  |  | 
3 |  |  |  | Cc1cccc(C)c1OCC(C)NC(=O)[C@@H](N)CCCCN.O=C(O)C(F)(F)F.O=C(O)C(F)(F)F (mixture of isomers) [Mexiletine (S)-lysine amide, (Rac)-Mexiletine-(S)-Lysine Ditrifluoroacetate] | > 1000 µM | 868 µM | 844 µM
4 | 0.975 µM | 0.76 µM | 1.17 µM | Cc1cccc(C)c1OCC(C)NC(=O)[C@@H](N)Cc1c[nH]c2ccccc12 (stereo partly drawn) [Mexiletine (S)-tryptophan amide] |  |  | 
5 | 2.96 µM | 1.66 µM | 13.6 µM | Cc1cccc(C)c1OCC(C)NC(=O)[C@@H](N)Cc1ccc(O)cc1 (stereo partly drawn) [Mexiletine (S)-tyrosine amide] |  |  | 
6 | > 30 µM | 5.58 µM | > 30 µM | Cc1cccc(C)c1OCC(C)NC(=O)Cc1c[nH]c2ccccc12 (stereo not drawn) [Mexiletine (indole-3-acetic acid) amide] |  |  | 
7 |  |  |  | Cc1cccc(C)c1OCC(C)NC(=O)[C@@H](N)C[S+](C)[O-].O=C(O)C(F)(F)F (stereo partly drawn) [Mexiletine [(R)-S-methyl-cysteine, Mexiletine [(R)—S-Methyl-Cysteine Sulfoxide] Amide Trifluoroacetate] | 993 µM | 201 µM | > 1000 µM
8 | 70.2 µM | 6.29 µM | 183 µM | Cc1cccc(C)c1OCC(C)NC(=O)c1ccc(N)s1 (stereo not drawn) [Mexiletine (5-aminothiophene-2-carboxylic acid) amide] |  |  | 
9 | > 1000 µM | > 1000 µM | > 1000 µM | Cc1cccc(C)c1OCC(C)NC(=O)[C@@H](N)CC(=O)O (stereo partly drawn) [Mexiletine-(S)-aspartic acid amide, Mexiletine-(S)-Aspartic Acid Amide Hydrochloride] |  |  | 
10 |  |  |  | Cc1cccc(C)c1OCC(C)NC(=O)[C@@H](N)C(C)(C)O (stereo partly drawn) [Mexiletine [^α-hydroxy-(5)-valine] amide, Mexiletine [β-hydroxy-(S)-valine] amide] | > 1000 µM | 349 µM | > 1000 µM
11 |  |  |  | Cc1cccc(C)c1OCC(C)NC(=O)c1ccc(N)cc1 (racemic) [Mexiletine-PABA amide Hydrochloride] | 62.5 µM | 20.7 µM | 129 µM
12 | 111 µM | 29.5 µM | 131 µM | Cc1cccc(C)c1OCC(C)NC(=O)c1ccc(N)cc1O (stereo not drawn) [Mexiletine (4-aminosalicylic acid) amide] |  |  | 
13 |  |  |  | Cc1cccc(C)c1OCC(C)NC(=O)CCc1c[nH]cn1 (racemic) [Mexiletine dihydrourocanic acid amide] | 627 µM | 121 µM | > 1000 µM
14 |  |  |  | Cc1cccc(C)c1OCC(C)NC(=O)C=Cc1c[nH]cn1 (stereo not drawn) [Mexiletine (urocanic acid) amide] | 426 µM | 252 µM | > 1000 µM
15 | > 1000 µM | > 1000 µM | > 1000 µM | Cc1cccc(C)c1OCC(C)NC(=O)CNCC(=O)O (stereo not drawn) [Mexiletine (carboxymethyl-glycine) amide, Mexiletine (Carboxymethyl-Glycine) Amide Hydrochloride] |  |  | 
16 | 38.1 µM | 13.1 µM | 99 µM | CSC[C@H](N)C(=O)NC(C)COc1c(C)cccc1C (stereo partly drawn) [Mexiletine [(R)-S-methyl-cysteine] amide] |  |  | 
17 | 5.2 µM | 1.3 µM | 26 µM | CSCC[C@H](N)C(=O)NC(C)COc1c(C)cccc1C (stereo partly drawn) [Mexiletine methionine amide, Mexiletine-(S)-Methionine Amide Hydrochloride] |  |  | 
18 |  |  |  | Cc1cccc(C)c1OCC(C)NC(=O)Oc1ccc(C(=O)O)cc1 (stereo not drawn) [Mexiletine-PHBA carbamate] | 30.9 µM | 16.5 µM | 131 µM
19 | 613 µM | 189 µM | > 1000 µM | Cc1cccc(C)c1OCC(C)NC(=O)[C@@H](N)CC(N)=O (stereo partly drawn) [Mexiletine-(S)-asparagine amide] |  |  | 
20 |  |  |  | Cc1cccc(C)c1OCC(C)NC(=O)C(N)CCCNC(=N)N(C)C.Cl.Cl (mixture of isomers) [Mexiletine-(S)—N,N-Dimethylarginine Amide Dihydrochloride] | > 1000 µM | > 1000 µM | > 1000 µM

Row | SMILES | IC50 [1] | IC50 [2] | IC50 (IC50 Tonic block, tonic block) | IC50 [3] | IC50 [4] | IC50 [5]
21 | Cc1cccc(C)c1OCC(C)NC(=O)[C@@H](N)COC(N)=O (stereo partly drawn) [Mexiletine [O-carbamoyl-(S)-serine] amide] | 125 µM | 12.6 µM | 486 µM |  |  | 

Where a name gives a salt, the structure may show the parent alone. Read-outs that look alike come from different tables or passages of the source.
